Source: US8815844B2, “Mitochondrial activity inhibitors of cancer-initiating cells and use thereof” (Universite de Geneve, priority 2009, dated 2014)

System: FL1^+ cells (glioma-initiating cells, gliomasphere cultures)
Test: in vitro recurrence assay (treatment then recovery), viable FL1+ cells by FACS
Assay type: cell-based, human
Conditions: temsirolimus (1 μM elsewhere in the source), 5 μM cyclopamine, 5 μM DAPT
Description: In contrast to other methods, which preferentially use cancer cell lines and stem cell marker like CD133 as a read-out of stemness, the Applicants' technology relies on primary cell cultures derived from human specimen and on a simple and unbiased detection of CICs independently of the use of any marker. Thus Applicants took advantage of such methodology to design and develop an in vitro recurrence assay to screen and validate potential therapeutic agents for eradicating cancer stem cells in glioma. […] The novelties here reside on the read-out of stemness used for testing the efficiency of any drug and on the possibility to identify specific anti-CSC agent.
Basically, any agent or inhibitor would be considered as an efficient anti-CSC agent if it fulfils the following criteria:
• 1) a viability of GICs (FL1^+ cells) decreases for more than 50% during the exposure to said agent or inhibitor during a maximum of 20 days, • 2) a recovery of GICs (FL1^+ cells) is less than 0.2 fold during the recovery phase of a maximum of 20 days, and • 3) the viability of normal brain cells is sustainable and recoverable during and after the exposure to the said agent or inhibitor.
a) Providing a cancer stem cell sample;
b) Treating the cancer stem cell sample provided under (a) with an agent; […]

SMILES: CC1=C2C[C@H]3[C@@H](CC=C4C[C@@H](O)CC[C@@]43C)[C@@H]2CC[C@]12O[C@@H]1C[C@H](C)CN[C@H]1[C@H]2C [cyclopamine, Cyclopamine]
- number of viable FL1^+ cells: decrease of the number of viable FL1^+ cells
